Compound activity deposited in PubChem BioAssay by several laboratories.
ASAP1 inh: blocks human ASAP1-stimulated Arf1 GTP hydrolysis | GDP FP detection | Q9ULH1 | hit rate 0.19% among 360,000 | AID 624377 | inhibition, % at 16.5 µM; in the data active means inhibition above about 25%;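 further: 0% = vehicle with enzyme and substrate and 100% = no enzyme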
CendR NRP1 mod: alters CendR peptide binding to human NRP-1; O14786; FAM-RPARPAR peptide binding to NRP-1, fluorescence polarization; hit rate 0.85% among 360,000; inhibition, % at 25 µM;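 active means inhibition or corrected inhibition above about 18%, plus a signal ratio from 0.5 to 1.5, limit read from the data, passing the limit was not always enough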
MC4R barr agon: activates human MC4R beta-arrestin recruitment; P32245; U2OS MC4R beta-arrestin complementation, luminescence; percent of melanotan II response, DMSO zero; activation, % at 8.9 µM; AID 540308; hit rate 0.98% among 360,000;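 active means activation above a per-plate cutoff, the mean activation of sample wells on that plate plus 3 SD, cut at about 8% in these data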
UUG fidelity: yeast start codon fidelity modulation; actives 0.13% (n = 350,000); activity score, % at 18.7 µM; S. cerevisiae UUG-firefly luciferase reporter, luminescence/redox ratio;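 active = replicate mean at a twofold rise or more, about +100% in these data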;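 note: firefly luciferase made from a UUG start codon reports start codon fidelity; reporter light over untreated wells divided by growth signal over untreated wells; some hits fall short of that in this replicate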
MC4R antagonist: antagonists of human melanocortin 4 receptor (MC4R); P32245; MC4R-expressing cells, MTII-stimulated cAMP, LANCE TR-FRET; inhibition, % at 6.5 µM; hit rate 0.48% among 360,000; AID 540295;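 active means inhibition above its plate's cutoff, the mean of tested wells on that plate plus 3 SD, cut at about 29% in these data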;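 further: 0% = Melanotan II alone and 100% = Melanotan II plus saturating MCL0020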
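System: U2OS cells stably expressing human melanocortin 4 receptor (MC4R). Reagent: Melanotan II challenge after compound preincubation. Doses: 6.5 µM. Times: 30-min compound, 1-h challenge, 1-h detection, room temperature. Measured by: TR-FRET with Eu-cAMP and labeled anti-cAMP, 671 nm. Replicates: singlicate.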
ARFGAP1 inh: inhibits rat ARF GTPase activating protein 1 | Q62848 | Arfgap1-stimulated ARF1 GTP hydrolysis, GDP FP detection | inhibition, % at 16.5 µM | hit rate 0.26% among 360,000 | AID 651572;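 active means inhibition above a per-plate limit, mean inhibition of low control wells plus 3 SD, cut at about 25% in these data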;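 further: 0% = DMSO wells with enzyme and 100% = wells lacking Arfgap1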
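Assay system: Rat Arfgap1 GAP domain (His6, aa 1-136), purified enzyme | Buffer or medium: HEPES 25 mM pH 7.5, NaCl 150 mM, MgCl2, DTT | Schedule: GTP hydrolysis reaction 2 h at 25 °C | Signal: FP of antibody-bound GDP Alexa 633 tracer, ex 620/em 688 nm | Measure: Percent inhibition of Arfgap1-stimulated GTP hydrolysis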
Numbers without * were called inactive; x = not tested or not shown. Shown are actives, neighbours in structure and some others; about 2.3% of the full set was active somewhere.

Results follow in this order: MC4R antagonist, MC4R barr agon, ARFGAP1 inh, CendR NRP1 mod, UUG fidelity, ASAP1 inh
> COc1ccc(-c2csc(NC(C)c3nc4cc(C(F)(F)F)ccc4n3CCOCCO)n2)cc1 (centres undefined)
→ 12.6, -1.2, 4.8, -7.1, -20.2, -4.5
> CCC(C)Cn1cnc2c(SCc3ccccc3F)nc(N)nc21 (centres undefined)
→ -3.8, -1.0, -1.1, -7.0, -15.1, 0.1
> CC(C)Cn1cnc2c(SCc3ccccc3F)nc(N)nc21
→ -3.6, -2.4, 2.0, 26.1*, -13.1, -7.2
> COC(=O)[C@@]12CCCCN1[C@H](c1ccc(-c3ccc(OC)cc3)cc1)[C@@H]1C(=O)N(C)C(=O)[C@@H]12
→ 14.8, 1.2, -12.4, 4.9, -1.9, 12.3
> COC(=O)[C@@]12CCCCN1[C@H](c1ccc(-c3ccc4c(c3)OCO4)cc1)[C@H]1C(=O)N(C)C(=O)[C@H]12
→ 3.5, -1.3, -3.5, 29.7*, -24.5, 11.0
> C[C@@H]1CN([C@H](C)CO)C(=O)c2cc(NS(=O)(=O)c3cn(C)cn3)ccc2O[C@H]1CN(C)Cc1ccc(Cl)c(Cl)c1
→ x, x, x, x, -14.0, x
> O=C(Nc1ccc(F)cc1)c1ccc(S(=O)(=O)N2CCOCC2)o1
→ 6.3, -1.4, -7.8, 25.4*, 1.4, 8.4
> NS(=O)(=O)c1ccc(NC(=O)c2ccc(S(=O)(=O)N3CCOCC3)o2)cc1
→ 1.7, 0.5, 4.3, -4.9, -9.7, -5.0
> Cc1ccc(C)c(NS(=O)(=O)c2ccc3c(c2)Cc2cc(S(=O)(=O)Nc4cc(C)ccc4C)ccc2-3)c1
→ 8.8, 8.8*, 1.5, 6.8, -5.9, 0.9
> CC(=O)c1ccc2noc(-c3ccc(F)cc3)c2c1
→ -6.5, 0.1, 14.1, 37.3*, -1.5, 8.2
> c1ccc(CNn2nnc3ccccc32)cc1
→ x, x, -11.8, 23.1*, x, -3.7
> C(#Cc1ccccc1)Cn1nnc2ccccc21
→ 6.8, -1.9, 13.9, 5.2, -16.8, 3.5
> Cc1nn(-c2ccccc2)c(C)c1C(=O)OCC(=O)Nc1ccccc1
→ 7.1, -1.0, 6.8, 26.1*, -9.1, 4.0
> Cc1ccc(NC(=O)COC(=O)c2c(C)nn(-c3ccccc3)c2C)cc1
→ 2.7, -0.5, -0.7, 4.5, -15.5, 10.0
> O=P(c1ccccc1)(c1ccccc1)c1ccccc1C(Br)Br
→ 5.4, -0.4, 0.6, 27.9*, -2.7, -2.9
> CC(C)(C)c1cccc(P(=O)(c2ccccc2)c2ccccc2)c1O
→ 11.8, 4.0, -4.0, -1.3, x, 2.1
> C[C@@H]1CN([C@@H](C)CO)C(=O)Cc2cc(NC(=O)Nc3ccc(C(F)(F)F)cc3)ccc2O[C@@H]1CN(C)S(=O)(=O)c1cn(C)cn1
→ x, x, x, x, -4.9, x
> O=C(Nc1cc(C(F)(F)F)ccc1N1CCCC1)C1CC(=O)N(Cc2ccccc2)C1 (centres undefined)
→ 2.3, -1.1, 7.1, 23.7*, -20.0, -9.1
> NC(=O)C1CCN(C(=O)CC2(CC(=O)O)CCCCC2)CC1
→ -4.0, 2.1, -1.1, 26.8*, x, 5.1
> O=C(CSc1ncnc2c1oc1ccccc12)Nc1nc2ccccc2s1
→ 7.7, 8.6*, 0.4, -9.3, 0.8, 6.4
> Cn1c(/C=C/c2ccc(Cl)cc2)nc2ccccc2c1=O
→ -1.2, 9.0*, 2.3, -7.5, -13.0, 0.9
> O=C(C[C@@H]1C=C[C@H](NC(=O)NC2CCCC2)[C@H](CO)O1)NCc1ccc(F)cc1
→ x, x, x, x, -4.6, x
> O=C1C(Br)=Cc2cccc3cccc1c23
→ -14.7, -1.4, 7.5, 26.6*, -18.1, -5.4
> O=C1c2sccc2-c2cccc3cccc1c23
→ -1.9, 1.0, 4.8, 16.0, -45.6, -8.6
> O=C(COC(=O)Cc1n[nH]c(=O)c2ccccc12)Nc1c(Br)cc([N+](=O)[O-])cc1Br
→ -3.2, -1.1, -5.0, 24.1*, 5.0, 8.6
> COc1ccc(NC(=O)C2CCN(C(=O)Nc3ccccc3)CC2)cc1S(=O)(=O)N(C)C
→ 1.2, -1.5, -2.0, 23.3*, -7.1, 11.5
> COc1ccc(NC(=O)C2CCN(C(=O)Cc3ccccc3)CC2)cc1OC
→ 0.4, 0.3, 7.2, 2.5, x, 3.0
> CCNc1c([N+](=O)[O-])ncn1C
→ -6.3, 0.5, 5.4, 31.5*, -9.3, 1.6
> O=C(Cc1ccncc1)NCC[C@@H]1CC[C@H](NC(=O)Nc2ccc(F)cc2)[C@H](CO)O1
→ x, x, x, x, 21.4, x
> CCCOc1ccc(N2C(=O)CC(N3CCN(CCN=CC4C(=O)CC(C)(C)CC4=O)CC3)C2=O)cc1 (centres undefined)
→ -1.8, -1.5, 0.5, 24.9*, x, -11.8

By substructure, the compounds so far containing an aryl methoxy group
Results follow in this order: MC4R antagonist, MC4R barr agon, ARFGAP1 inh, CendR NRP1 mod, UUG fidelity, ASAP1 inh
> COc1ccc(-c2csc(NC(C)c3nc4cc(C(F)(F)F)ccc4n3CCOCCO)n2)cc1 (centres undefined)
→ 12.6, -1.2, 4.8, -7.1, -20.2, -4.5
> COC(=O)[C@@]12CCCCN1[C@H](c1ccc(-c3ccc(OC)cc3)cc1)[C@@H]1C(=O)N(C)C(=O)[C@@H]12
→ 14.8, 1.2, -12.4, 4.9, -1.9, 12.3
> COc1ccc(NC(=O)C2CCN(C(=O)Nc3ccccc3)CC2)cc1S(=O)(=O)N(C)C
→ 1.2, -1.5, -2.0, 23.3*, -7.1, 11.5
> COc1ccc(NC(=O)C2CCN(C(=O)Cc3ccccc3)CC2)cc1OC
→ 0.4, 0.3, 7.2, 2.5, x, 3.0

(listing goes on)
Results follow in this order: MC4R antagonist, MC4R barr agon, ARFGAP1 inh, CendR NRP1 mod, UUG fidelity, ASAP1 inh
> CCCOc1ccc(N2C(=O)CC(N3CCOCC3)C2=O)cc1 (centres undefined)
→ -4.6, -0.5, -7.7, -2.3, -19.6, 10.2
> Cc1ccc(-c2nc3sc4c(N)ncnc4c3c3c2CCCC3)cc1
→ 6.1, 8.4*, 7.1, -8.3, -2.5, 20.1
> COc1ccc(-c2cn(CC[C@@H]3CC[C@H](NS(=O)(=O)c4ccccc4C)[C@H](CO)O3)nn2)cc1
→ x, x, x, x, -2.9, x
> CC(C)OP(=O)(c1ccc(N(C)C)cc1)C(Nc1ccccc1)c1ccccc1 (centres undefined)
→ 6.6, -0.5, -7.2, 30.8*, x, 8.0
> CC(C)CCOP(=O)(c1ccc(N(C)C)cc1)C(Nc1ccccc1)c1ccc(N(C)C)cc1 (centres undefined)
→ -0.5, -1.7, 19.8, -6.0, -16.2, -1.1
> Cc1ccc(S(=O)(=O)Nc2ccc3c(c2)C(=O)N([C@@H](C)CO)C[C@@H](C)[C@H](CN(C)Cc2ccc4c(c2)OCO4)O3)cc1
→ x, x, x, x, 2.6, x
> OC1(c2cccc(C(F)(F)F)c2)CCN(c2ccc(-c3ccccc3)nn2)CC1
→ 13.9, 9.2*, 12.7, -3.4, -21.3, -11.9
> O=C(Nc1ccccc1)N1CCC(O)(c2cccc(C(F)(F)F)c2)CC1
→ -0.9, 1.5, -4.1, -5.2, -18.9, 10.3
> Fc1ccccc1NC(=S)Nc1cccc2cnccc12
→ 11.5, -1.6, 4.0, 44.0*, x, -1.7
> Cc1ccccc1NC(=S)Nc1cccc2cnccc12
→ 4.5, -1.2, 7.0, 2.5, -30.5, -1.0
> C[C@H](CO)N1C[C@H](C)[C@@H](CN(C)CC2CCCCC2)OCCCC[C@H](C)Oc2ccc(NS(=O)(=O)c3ccccc3)cc2C1=O
→ x, x, x, x, 50.4, x
> C[C@@H]1CN([C@@H](C)CO)C(=O)c2cc(C#Cc3cccnc3)cnc2O[C@@H]1CN(C)C(=O)CN(C)C
→ x, x, x, x, 6.0, x
> CC[C@@H](C(=O)[C@@H](C)[C@@H](O)[C@H](C)CCc1ccc(C)c(O)c1C(=O)O)[C@H]1O[C@](CC)([C@H]2CC[C@](O)(CC)[C@H](C)O2)C[C@@H]1C
→ 6.1, 88.5*, -17.9, 5.7, -15.1, -1.0
> COc1ccc(C(C(=O)NC(C)(C)C)N(C(=O)CCC(=O)Nc2cc(C)on2)c2ccc(C)c(C)c2)cc1 (centres undefined)
→ -4.9, 0.8, -16.4, 4.5, -5.1, 8.9
